Test results as given in publication PMC6884575, “Suppression of FOXM1 activities and breast cancer growth in vitro and in vivo by a new class of compounds” (NPJ Breast Cancer, 2019).

Assay: Pharmacokinetics in mice after single s.c. or oral dose
Type: in vivo, female CD1 mice
Text: The data were fitted to a non-compartment model.

In the case of CC[N+](C)(CC)CCCCCCOc1ccc(C(=C2C3CC4CC(C3)CC2C4)c2ccc(OCCCCCC[N+](C)(CC)CC)cc2)cc1 [NB-115], the “blood levels of compound” value (after oral administration) is reported as “only very low levels” and the “blood levels of compound” value (after s.c. injection) is reported as “very high blood levels”.
